Measured values reported in ChEMBL document CHEMBL1134417, “Hypoxia-selective antitumor agents. 16. Nitroarylmethyl quaternary salts as bioreductive prodrugs of the alkylating agent mechlorethamine” (2001).

Experiments:
[1] = tested on: EMT6; assay: Hypoxic cytotoxicity ratio was determined; details: Mus musculus
[2] = tested on: Mus musculus; assay: In vivo toxicity against C3H/HeN cell line in mice expressed as maximal tolerated dose
[3] = tested on: EMT6; assay: Ability to reduce surviving fraction of EMT6 cells to 10% when exposed to N2 for 3 hrs; details: Mus musculus
[4] = tested on: Mus musculus; assay: in vivo activity against aerobic and hypoxic cells in RIF-1 tumors when administered at a dose of 100 umol/kg in mice
[5] = tested on: Mus musculus; assay: in vivo activity against aerobic and hypoxic cells in RIF-1 tumors when administered at a dose of 100 umol/kg in mice 30 min before exposure to radiation
[6] = tested on: Mus musculus; assay: in vivo activity against aerobic and hypoxic cells in RIF-1 tumors when administered at a dose of 100 umol/kg in mice after 5 min of exposure to radiation
[7] = tested on: EMT6; assay: Ability to reduce surviving fraction of EMT6 cells to 10% when exposed to air for 3 hrs; details: Mus musculus
[8] = tested on: EMT6; assay: Ability to reduce cell density of SKOV3 cells to 50% after 4 hr of exposure to air; details: Mus musculus
[9] = tested on: Mus musculus; assay: in vivo activity against aerobic and hypoxic cells in RIF-1 tumors when administered at a dose of 56.2 umol/kg in mice 30 min before exposure to radiation
[10] = tested on: Mus musculus; assay: in vivo activity against aerobic and hypoxic cells in RIF-1 tumors when administered at a dose of 56.2 umol/kg in mice after 5 min of exposure to radiation
[11] = tested on: Mus musculus; assay: in vivo activity against aerobic and hypoxic cells in RIF-1 tumors when administered at a dose of 56.2 umol/kg in mice
[12] = tested on: Mus musculus; assay: in vivo activity against aerobic and hypoxic cells in RIF-1 tumors when administered at a dose of 31.6 umol/kg in mice after 5 min of exposure to radiation
[13] = tested on: Mus musculus; assay: in vivo activity against aerobic and hypoxic cells in RIF-1 tumors when administered at a dose of 31.6 umol/kg in mice 30 min before exposure to radiation
[14] = tested on: Mus musculus; assay: in vivo activity against aerobic and hypoxic cells in RIF-1 tumors when administered at a dose of 31.6 umol/kg in mice

| SMILES | C10 [1] | MTD [2] | C10 [3] | C10 [7] | other results |
| --- | --- | --- | --- | --- | --- |
| Cn1cnc([N+](=O)[O-])c1C[N+](C)(CCCl)CCCl | 46 µM | 100 µM/kg | 1.2 µM | 57 µM | Log cell kill [4]: 0.38; Log cell kill [5]: 0.39; Log cell kill [6]: 1.01 |
| C[N+](CCCl)(CCCl)Cc1ccccc1[N+](=O)[O-] | 400 µM | 100 µM/kg | 66 µM | – | C10 [8]: 12300 µM; Log cell kill [4]: 0.24; Log cell kill [5]: 0.01; Log cell kill [6]: 0.92 |
| C[N+](CCCl)(CCCl)Cc1sccc1[N+](=O)[O-] | 6 µM | 56.2 µM/kg | 6 µM | 30 µM | Log cell kill [9]: 0.16; Log cell kill [10]: 0.11; Log cell kill [11]: 0.23 |
| Cn1ncc([N+](=O)[O-])c1C[N+](C)(CCCl)CCCl | – | 23.7 µM/kg | – | – | – |
| C[N+](CCCl)(CCCl)Cc1ccc([N+](=O)[O-])s1 | 16 µM | 56.2 µM/kg | 1.3 µM | 22 µM | Log cell kill [9]: 0.16; Log cell kill [10]: 0.55; Log cell kill [11]: 0.54 |
| Cn1ncc(C[N+](C)(CCCl)CCCl)c1[N+](=O)[O-] | 2500 µM | 31.6 µM/kg | 2.2 µM | 3450 µM | Log cell kill [12]: 0.17; Log cell kill [13]: 0.16; Log cell kill [14]: 0.04 |
| Cn1ccc(C[N+](C)(CCCl)CCCl)c1[N+](=O)[O-] | – | 56.2 µM/kg | – | – | – |
| Cn1c(C[N+](C)(CCCl)CCCl)ccc1[N+](=O)[O-] | – | 42.1 µM/kg | – | – | – |
